# Data taken from patent US12336982B2 (RODEO THERAPEUTICS CORPORATION, priority 2018, dated 2025).
# Amino acid sequences for entries named in this document (tags omitted).
# UniProt Q8VCC1, whole entry: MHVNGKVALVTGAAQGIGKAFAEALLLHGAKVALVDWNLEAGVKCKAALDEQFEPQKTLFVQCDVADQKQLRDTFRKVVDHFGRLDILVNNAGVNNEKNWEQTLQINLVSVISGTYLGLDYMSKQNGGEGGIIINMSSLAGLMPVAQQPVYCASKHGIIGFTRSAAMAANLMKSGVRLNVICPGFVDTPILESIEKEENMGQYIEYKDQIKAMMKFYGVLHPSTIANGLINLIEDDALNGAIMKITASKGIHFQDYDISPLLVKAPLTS
# UniProt Q12809, whole entry: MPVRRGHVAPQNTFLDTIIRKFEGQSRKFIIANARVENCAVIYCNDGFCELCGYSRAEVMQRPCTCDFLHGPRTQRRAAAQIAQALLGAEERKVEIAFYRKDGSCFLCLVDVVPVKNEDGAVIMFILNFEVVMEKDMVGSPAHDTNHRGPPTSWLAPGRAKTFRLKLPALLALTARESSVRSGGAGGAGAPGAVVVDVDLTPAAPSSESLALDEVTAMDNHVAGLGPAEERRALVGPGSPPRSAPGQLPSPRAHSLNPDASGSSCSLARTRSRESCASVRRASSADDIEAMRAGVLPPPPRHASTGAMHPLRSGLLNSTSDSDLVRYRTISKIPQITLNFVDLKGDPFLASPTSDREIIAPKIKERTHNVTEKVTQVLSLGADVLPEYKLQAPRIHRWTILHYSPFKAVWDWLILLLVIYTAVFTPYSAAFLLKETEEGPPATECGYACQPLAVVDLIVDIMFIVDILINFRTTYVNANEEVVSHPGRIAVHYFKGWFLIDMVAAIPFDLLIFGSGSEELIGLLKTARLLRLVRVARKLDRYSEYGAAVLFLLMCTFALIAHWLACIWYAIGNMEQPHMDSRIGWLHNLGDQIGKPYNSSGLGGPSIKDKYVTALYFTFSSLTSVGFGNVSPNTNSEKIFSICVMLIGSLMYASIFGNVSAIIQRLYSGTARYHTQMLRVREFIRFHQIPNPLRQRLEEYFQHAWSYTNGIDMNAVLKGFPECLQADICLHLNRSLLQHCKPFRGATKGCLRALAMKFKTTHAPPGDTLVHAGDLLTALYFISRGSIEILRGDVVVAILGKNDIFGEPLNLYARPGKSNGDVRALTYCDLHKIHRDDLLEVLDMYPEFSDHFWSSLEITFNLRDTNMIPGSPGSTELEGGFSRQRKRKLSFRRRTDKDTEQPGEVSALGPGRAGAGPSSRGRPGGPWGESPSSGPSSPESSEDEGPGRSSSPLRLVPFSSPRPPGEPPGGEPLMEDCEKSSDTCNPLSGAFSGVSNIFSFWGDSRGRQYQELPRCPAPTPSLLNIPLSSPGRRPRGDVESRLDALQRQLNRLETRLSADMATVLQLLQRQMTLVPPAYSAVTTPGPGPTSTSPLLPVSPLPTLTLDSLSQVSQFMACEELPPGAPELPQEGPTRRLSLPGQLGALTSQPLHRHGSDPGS
# What was measured:
# [1] = biological target: colon 15-PGDH (Mus musculus, UniProt Q8VCC1); experiment: Colon 15-PGDH activity 30 minutes after oral dosing of mice at 10 mg/kg; details: for Colon enzyme inhibition 30 min following 10 mpk PO: mice; for inhibition of colon 15-PGDH activity at 30 minutes: given orally to mice at 10 mpk, negative value = increased activity
# [2] = Human microsome stability; details: human microsomes
# [3] = biological target: hERG (Homo sapiens, UniProt Q12809); experiment: hERG IC50; details: read-out: hERG IC50 (μm)
# [4] = system: A549 cells; experiment: Induction of PGE2 from IL1-β treated A549 cells; details: read-out: Elevation of PGE2 in A549 cell culture media (EC50); A549 cells stimulated with IL1-β for 24 hours
Structure (SMILES),Colon enzyme inhibition 30 min following 10 mpk PO [1],"Human microsome stability (T½, min) [2]",pEC50 [4],inhibition of colon 15-PGDH activity at 30 minutes [1],pIC50 [3]
Nc1c([S@+]([O-])C2CCC2)sc2nc(-c3cnc(NCCO)nc3)cc(C3CC3)c12,,≥60 min,≥ 8.00,,< 4.82
COCC[S@@+]([O-])c1sc2nc(-c3cccnc3)cc(C(F)(F)F)c2c1N [Example 80],<70%,≥60 min,≥ 8.00,,< 4.82
CCCC[S@@+]([O-])c1sc2nc(-c3nccs3)cc(-c3cnc(C)n3C)c2c1N,<70%,<60 min,< 8.00,−55.2%,
COCC[S@@+]([O-])c1sc2nc(-c3cncnc3)cc(-c3ccccc3)c2c1N [Example 85],>90%,≥60 min,≥ 8.00,,< 4.82
COCC[S@@+]([O-])c1sc2nc(-c3cnc(N)nc3)cc(-c3ccccc3)c2c1N [Example 87],>90%,≥60 min,≥ 8.00,,< 4.82
COCCC[S@@+]([O-])c1sc2nc(-c3cncnc3)cc(-c3ncccn3)c2c1N [Example 111],<70%,≥60 min,< 8.00,,< 4.82
COCCC[S@@+]([O-])c1sc2nc(-c3cccnc3)cc(-c3ccccc3)c2c1N,,<60 min,≥ 8.00,−55.2%,≥ 4.82

# Continued, in another order:
Colon enzyme inhibition 30 min following 10 mpk PO [1],"Human microsome stability (T½, min) [2]",pEC50 [4],inhibition of colon 15-PGDH activity at 30 minutes [1],Structure (SMILES),pIC50 [3]
>90%,≥60 min,≥ 8.00,,Nc1c([S@+]([O-])C2CCC2)sc2nc(-c3cnc(NCCO)nc3)cc(-c3ccccc3)c12 [Example 51],< 4.82
<70%,≥60 min,≥ 8.00,,COCCC[S@@+]([O-])c1sc2nc(-c3cccnc3)cc(C(F)(F)F)c2c1N [Example 78],< 4.82
>90%,<60 min,≥ 8.00,,COCCC[S@@+]([O-])c1sc2nc(-c3cnc(N)nc3)cc(-c3ccccc3)c2c1N,≥ 4.82
,≥60 min,≥ 8.00,,COCC[S@@+]([O-])c1sc2nc(-c3cnc(NCCO)nc3)cc(-c3ccccc3)c2c1N,< 4.82
,≥60 min,≥ 8.00,,Cn1nccc1-c1cc(-c2cncnc2)nc2sc([S@+]([O-])C3CCC3)c(N)c12,< 4.82
>90%,≥60 min,≥ 8.00,,COCCC[S@@+]([O-])c1sc2nc(-c3ccc(=O)n(C)c3)cc(-c3ccccc3)c2c1N,< 4.82
>90%,≥60 min,≥ 8.00,,COCC[S@@+]([O-])c1sc2nc(-c3cnc4nn(C)cc4c3)cc(C3CC3)c2c1N,< 4.82
>90%,≥60 min,≥ 8.00,,COCC[S@@+]([O-])c1sc2nc(-c3cnc(N)nc3)cc(C3CC3)c2c1N [Example 150],< 4.82

# pEC50, pIC50: −log10 of the molar value.
